Earlier results as cited in patent publication US20220394981A1, “MICRONUTRIENT FORMULATIONS THAT CONTROL PLANT PATHOGENS” (priority 2021, published 2022).

Conditions: cited from earlier work

For `O=C(O)CN(CCN(CC(=O)O)CC(=O)O)CC(=O)O` [EDTA], which “LogK Fe2+ (stability constant)” value is on record?
The value was 14.3.
